Assay results from paper PMC11671014, “A potent and selective reaction hijacking inhibitor of Plasmodium falciparum tyrosine tRNA synthetase exhibits single dose oral efficacy in vivo” (PLOS Pathogens, 2024).

Assays:
HsTyrRS = molecular target: T1, HsTyrRS (Homo sapiens, UniProt P54577); experiment: Differential scanning fluorimetry (DSF) of HsTyrRS; assay type: binding
T1 sequence (P54577 1-528): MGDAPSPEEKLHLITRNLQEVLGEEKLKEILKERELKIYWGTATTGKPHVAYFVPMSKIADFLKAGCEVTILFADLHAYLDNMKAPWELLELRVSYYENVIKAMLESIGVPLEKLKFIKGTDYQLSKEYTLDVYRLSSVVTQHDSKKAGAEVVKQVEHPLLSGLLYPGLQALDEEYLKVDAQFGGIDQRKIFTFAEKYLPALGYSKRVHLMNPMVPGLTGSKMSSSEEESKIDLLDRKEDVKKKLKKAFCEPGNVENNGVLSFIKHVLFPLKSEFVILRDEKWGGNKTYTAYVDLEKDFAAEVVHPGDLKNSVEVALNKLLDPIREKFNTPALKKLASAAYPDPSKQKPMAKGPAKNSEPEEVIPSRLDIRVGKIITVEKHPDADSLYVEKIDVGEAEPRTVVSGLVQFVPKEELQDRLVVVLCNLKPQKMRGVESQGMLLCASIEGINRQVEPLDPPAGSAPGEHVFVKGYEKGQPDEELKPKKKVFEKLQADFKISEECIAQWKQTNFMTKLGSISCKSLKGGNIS
Procedure: The effect on ML471 and analogues on the thermal stability of TyrRS enzymes was assayed as previously described. […] SYPRO Orange (Sigma-Aldrich; 5,000X concentrate in DMSO) was added to the reaction mixture at a final concentration of 5X. 25 μL of the sample was added into each well of a 96-well qPCR plate (Applied Biosystems). The plate was sealed and analysed using StepOnePlus Real-Time PCR system (Applied Biosystems). The samples were heated from 20°C to 90°C with a 1% continuous gradient. The thermal unfolding curve was plotted as the first derivative curve of the raw fluorescence values. The melting temperature (Tm), defined as the peak of the first derivative curve, was used to assess the thermal stability of protein-ligand complexes.

[1] = molecular target: T2, NAE (NEDD8-activating enzyme) (Homo sapiens, UniProt Q8TBC4); settings: read-out: NAE IC50 HTRF; ref [16]; cited from earlier work
T2 sequence (Q8TBC4 1-463): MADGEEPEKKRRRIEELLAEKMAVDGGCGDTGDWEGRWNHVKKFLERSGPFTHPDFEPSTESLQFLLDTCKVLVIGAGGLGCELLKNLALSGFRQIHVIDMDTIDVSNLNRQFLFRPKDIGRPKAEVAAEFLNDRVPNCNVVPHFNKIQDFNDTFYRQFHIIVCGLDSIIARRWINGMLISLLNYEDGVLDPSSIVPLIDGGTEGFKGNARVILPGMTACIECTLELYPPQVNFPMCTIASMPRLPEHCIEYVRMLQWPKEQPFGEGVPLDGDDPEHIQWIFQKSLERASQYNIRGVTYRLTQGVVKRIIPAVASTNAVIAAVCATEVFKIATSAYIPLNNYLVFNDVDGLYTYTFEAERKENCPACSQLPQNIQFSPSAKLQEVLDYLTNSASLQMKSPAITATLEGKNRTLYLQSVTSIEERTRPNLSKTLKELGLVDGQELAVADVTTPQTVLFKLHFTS
T2 sequence (Q13564 1-534 partner): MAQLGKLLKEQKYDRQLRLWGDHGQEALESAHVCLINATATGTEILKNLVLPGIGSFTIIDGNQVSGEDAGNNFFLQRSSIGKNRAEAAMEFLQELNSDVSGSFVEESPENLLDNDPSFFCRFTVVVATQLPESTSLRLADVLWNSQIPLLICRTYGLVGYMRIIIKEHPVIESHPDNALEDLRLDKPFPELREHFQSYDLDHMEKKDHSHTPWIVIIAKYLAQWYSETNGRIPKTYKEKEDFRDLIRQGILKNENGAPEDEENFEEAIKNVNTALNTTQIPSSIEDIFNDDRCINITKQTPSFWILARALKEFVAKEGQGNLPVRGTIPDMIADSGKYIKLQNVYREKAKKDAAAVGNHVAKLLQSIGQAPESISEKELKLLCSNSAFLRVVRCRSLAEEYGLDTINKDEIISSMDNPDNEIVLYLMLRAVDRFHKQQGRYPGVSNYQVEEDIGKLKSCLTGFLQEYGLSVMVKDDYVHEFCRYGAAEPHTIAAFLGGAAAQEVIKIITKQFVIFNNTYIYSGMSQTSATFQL

[2] = molecular target: T3, SAE (SUMO-activating enzyme) (Homo sapiens, UniProt Q9UBT2); settings: read-out: SAE IC50 HTRF; ref [16]; cited from earlier work
T3 sequence (Q9UBT2 1-640): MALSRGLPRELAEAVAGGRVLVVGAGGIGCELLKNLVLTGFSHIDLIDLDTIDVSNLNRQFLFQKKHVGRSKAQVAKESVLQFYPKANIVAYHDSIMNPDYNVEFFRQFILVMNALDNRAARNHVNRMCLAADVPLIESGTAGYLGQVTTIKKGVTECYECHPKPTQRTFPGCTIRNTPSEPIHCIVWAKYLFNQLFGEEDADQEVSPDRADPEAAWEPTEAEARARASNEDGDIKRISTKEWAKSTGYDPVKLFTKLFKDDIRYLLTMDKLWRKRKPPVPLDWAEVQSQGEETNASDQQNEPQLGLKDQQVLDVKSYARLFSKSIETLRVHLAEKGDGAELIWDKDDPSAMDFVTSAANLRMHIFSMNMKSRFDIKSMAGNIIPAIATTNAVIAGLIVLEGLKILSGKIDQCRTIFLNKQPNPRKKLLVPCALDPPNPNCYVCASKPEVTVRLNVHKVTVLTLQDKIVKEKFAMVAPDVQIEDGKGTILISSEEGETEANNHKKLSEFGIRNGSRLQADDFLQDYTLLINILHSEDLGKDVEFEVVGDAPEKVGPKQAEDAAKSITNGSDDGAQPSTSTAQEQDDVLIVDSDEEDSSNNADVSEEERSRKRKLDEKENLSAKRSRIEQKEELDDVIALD
T3 sequence (Q9UBE0 1-346 partner): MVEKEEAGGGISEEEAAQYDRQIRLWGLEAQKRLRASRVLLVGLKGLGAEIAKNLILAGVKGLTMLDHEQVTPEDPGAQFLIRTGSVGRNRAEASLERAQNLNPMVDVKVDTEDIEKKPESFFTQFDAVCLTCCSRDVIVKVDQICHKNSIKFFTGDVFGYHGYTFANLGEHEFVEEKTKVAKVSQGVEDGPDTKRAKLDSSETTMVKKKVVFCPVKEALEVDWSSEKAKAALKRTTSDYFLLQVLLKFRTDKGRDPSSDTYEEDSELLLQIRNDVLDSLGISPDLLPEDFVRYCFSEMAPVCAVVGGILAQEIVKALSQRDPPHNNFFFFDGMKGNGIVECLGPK

[3] = molecular target: T4, Atg7 (autophagy-related protein-7) (Homo sapiens, UniProt O95352); parameters: method as in PMID 35653481; settings: read-out: ATG7 IC50 HTRF RH-GABARAP; ref [16]; cited from earlier work
T4 sequence (O95352 1-703): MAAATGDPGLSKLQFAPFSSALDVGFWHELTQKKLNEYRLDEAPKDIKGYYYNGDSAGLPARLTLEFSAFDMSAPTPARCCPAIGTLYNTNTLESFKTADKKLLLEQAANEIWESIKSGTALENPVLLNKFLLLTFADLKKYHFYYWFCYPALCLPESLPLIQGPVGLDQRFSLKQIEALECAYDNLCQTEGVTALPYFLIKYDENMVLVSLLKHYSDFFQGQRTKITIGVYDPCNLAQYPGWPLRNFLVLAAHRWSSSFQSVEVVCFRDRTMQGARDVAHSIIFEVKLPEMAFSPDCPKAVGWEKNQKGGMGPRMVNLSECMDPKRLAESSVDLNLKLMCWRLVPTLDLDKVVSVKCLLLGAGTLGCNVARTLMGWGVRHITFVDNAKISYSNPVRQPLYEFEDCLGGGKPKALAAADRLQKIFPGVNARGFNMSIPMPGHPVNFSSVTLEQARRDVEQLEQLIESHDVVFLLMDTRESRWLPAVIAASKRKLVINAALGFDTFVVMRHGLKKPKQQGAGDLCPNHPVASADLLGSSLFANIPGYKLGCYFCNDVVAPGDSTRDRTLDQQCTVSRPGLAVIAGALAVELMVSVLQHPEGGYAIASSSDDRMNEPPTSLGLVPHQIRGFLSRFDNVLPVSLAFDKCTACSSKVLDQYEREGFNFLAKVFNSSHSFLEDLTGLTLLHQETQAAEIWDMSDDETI

[4] = molecular target: T5, UAE (ubiquitin activating enzyme) (Homo sapiens, UniProt P22314); settings: read-out: UAE IC50 HTRF; ref [16]; cited from earlier work
T5 sequence (P22314 1-1058): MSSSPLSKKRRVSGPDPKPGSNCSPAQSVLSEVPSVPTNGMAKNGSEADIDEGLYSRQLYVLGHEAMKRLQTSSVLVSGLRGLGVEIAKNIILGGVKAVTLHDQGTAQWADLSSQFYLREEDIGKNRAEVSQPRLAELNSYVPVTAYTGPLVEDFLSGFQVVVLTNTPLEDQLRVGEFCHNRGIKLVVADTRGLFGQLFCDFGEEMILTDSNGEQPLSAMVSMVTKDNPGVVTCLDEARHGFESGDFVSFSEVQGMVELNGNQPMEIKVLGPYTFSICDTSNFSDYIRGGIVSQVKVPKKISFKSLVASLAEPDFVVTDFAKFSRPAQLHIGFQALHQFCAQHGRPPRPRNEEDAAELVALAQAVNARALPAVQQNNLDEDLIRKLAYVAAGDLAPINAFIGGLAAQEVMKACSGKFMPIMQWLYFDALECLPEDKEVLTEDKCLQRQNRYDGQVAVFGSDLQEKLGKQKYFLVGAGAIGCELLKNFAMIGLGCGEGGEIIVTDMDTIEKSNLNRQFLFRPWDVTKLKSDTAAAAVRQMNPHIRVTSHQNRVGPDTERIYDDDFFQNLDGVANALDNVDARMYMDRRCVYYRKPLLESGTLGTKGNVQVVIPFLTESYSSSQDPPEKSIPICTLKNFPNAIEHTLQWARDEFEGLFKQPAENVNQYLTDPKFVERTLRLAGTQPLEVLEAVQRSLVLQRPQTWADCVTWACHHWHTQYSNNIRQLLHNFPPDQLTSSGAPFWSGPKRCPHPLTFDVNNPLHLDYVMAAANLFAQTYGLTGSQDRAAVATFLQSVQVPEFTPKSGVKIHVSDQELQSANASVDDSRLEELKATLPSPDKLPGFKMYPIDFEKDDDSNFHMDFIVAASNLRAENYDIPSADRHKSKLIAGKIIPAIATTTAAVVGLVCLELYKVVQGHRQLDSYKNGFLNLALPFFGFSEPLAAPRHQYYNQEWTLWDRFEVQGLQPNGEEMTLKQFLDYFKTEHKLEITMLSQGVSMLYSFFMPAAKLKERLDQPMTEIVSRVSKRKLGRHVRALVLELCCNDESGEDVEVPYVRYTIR

Nc1ncnc2c1ncn2[C@@H]1O[C@H](COS(N)(=O)=O)[C@@H](O)[C@H]1O [AMS, adenosine 5’-monosulfamate, reference compound]
HsTyrRS binding (DSF) Delta Tm (HsTyrRS; 200 μM sulfamate, ATP, tyrosine, yeast tRNA, 37°C 4 h): 9.1 ± 0.1 °C | Kd (HsTyrRS; estimated from DSF with an irreversible thermal unfolding model, read-out: HsTyrRS binding (DSF) apparent KD): 8 nM | thermal stabilisation of recombinant HsTyrRS (in words) (HsTyrRS; with all substrates): substantial thermal stabilization | HsTyrRS Tm (HsTyrRS; with sulfamate, ATP, tyrosine and tRNA, apo 49.0 ± 0.2): 58.2 ± 0.3 °C | IC50 [1]: 6 ± 1 nM | IC50 [2]: 6 ± 2 nM | IC50 [3]: 410000 ± 20000 nM | IC50 [4]: 6 ± 3 nM
